This data set concerns the molecule itself. Briefly: SDS-PAGE and western blotting of cell lysates; whole-cell lysates boiled in SDS sample buffer with β-mercaptoethanol; 15% gel; VHL antibody; oligomeric state read from the band sizes. (In general: Immunoblotting shows a protein as a band on a membrane.)

“And” between values parts separate entries of the source, which are not always exact repeats. Equal values may be shown once.

B1: monomeric p19-VHL (19-kDa monomer) (natural protein, human (endogenous in RT4P), UniProt P40337-3 1-160, looked up)
chain: MEAGRPRPVLRSVNSREPSQVIFCNRSPRVVLPVWLNFDGEPQPYPTLPPGTGRRIHSYRGHLWLFRDAGTHDGLLVNQTELFVPSLNVDGQPIFANITLPVYTLKERCLQVVRSLVKPENYRRLDIVRSLYEDLEDHPNVQKDLERLTQERIAHQRMGD
notes: Von Hippel-Lindau protein, p19 isoform (19 kDa), made from an alternative initiation codon; Identified only as a 19-kDa band on a VHL western blot; also called VHL p19 isoform; monomeric VHL; source: endogenous, RT4P lysate (also lysates of other human cancer cell lines)
For B1, the “stoichiometry N” value was 2 and 3 and 4.

By stoichiometry N is commonly meant a count of units in the complex or per binding partner.

These data come from paper PMC5447132, “RalBP1 and p19-VHL play an oncogenic role, and p30-VHL plays a tumor suppressor role during the blebbishield emergency program” (Cell Death Discovery, 2017).
